Source: ChEMBL document CHEMBL1124221, “Highly selective kappa opioid analgesics. Synthesis and structure-activity relationships of novel N-[(2-aminocyclohexyl)aryl]acetamide and N-[(2-aminocyclohexyl)aryloxy]acetamide derivatives” (1988)

Chains of the proteins cited; added tags and fusions are not shown. Lines headed by an entry give the natural chain unless they say otherwise; changes in a name come on top.
UniProt P41145: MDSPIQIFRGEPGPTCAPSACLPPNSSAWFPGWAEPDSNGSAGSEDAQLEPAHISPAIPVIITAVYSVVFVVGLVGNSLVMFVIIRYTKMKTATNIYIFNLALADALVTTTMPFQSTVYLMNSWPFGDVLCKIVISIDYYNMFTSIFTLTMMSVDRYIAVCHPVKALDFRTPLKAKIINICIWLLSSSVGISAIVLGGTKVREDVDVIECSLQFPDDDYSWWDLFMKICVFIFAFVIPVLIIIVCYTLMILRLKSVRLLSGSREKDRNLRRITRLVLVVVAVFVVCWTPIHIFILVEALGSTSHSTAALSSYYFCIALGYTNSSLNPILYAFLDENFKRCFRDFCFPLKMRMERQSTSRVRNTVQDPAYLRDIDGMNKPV
UniProt P35372, whole entry, looked up: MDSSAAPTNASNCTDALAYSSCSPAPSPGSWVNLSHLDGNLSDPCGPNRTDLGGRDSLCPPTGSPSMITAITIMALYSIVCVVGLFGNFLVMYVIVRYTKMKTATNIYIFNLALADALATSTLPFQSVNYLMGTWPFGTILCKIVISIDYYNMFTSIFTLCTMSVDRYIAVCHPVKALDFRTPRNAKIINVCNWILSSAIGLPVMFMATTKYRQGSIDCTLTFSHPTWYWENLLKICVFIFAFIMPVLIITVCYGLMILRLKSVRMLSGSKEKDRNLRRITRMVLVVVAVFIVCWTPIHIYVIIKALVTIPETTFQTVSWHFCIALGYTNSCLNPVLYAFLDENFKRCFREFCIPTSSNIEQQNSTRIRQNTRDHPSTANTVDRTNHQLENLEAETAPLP

How the values were obtained:
[1] = target: T1, Opioid receptors; mu & kappa (Homo sapiens) (UniProt P41145+P35372); assay: Ratio of Ki at mu-opioid receptor to Ki at kappa oioid receptor; details: Cavia porcellus
[2] = target: T1, Opioid receptors; mu & kappa (Homo sapiens); assay: Ratio of Ki at mu-opioid receptor to Ki at kappa opioid receptor; details: Cavia porcellus

Row | SMILES | Ratio [1] | Ratio [2]
1 | CN(C(=O)Cc1cccc2sccc12)[C@@H]1CCCC[C@H]1N1CCCC1 | 100 | 
2 | CN(CCc1cccs1)[C@@H]1CCCC[C@H]1N(C)C(=O)Cc1cccc2sccc12 | 0.99 | 
3 | CN(C(=O)Cc1ccc(Cl)c(Cl)c1)C1CCC2(CCCO2)CC1N1CCCC1 (stereo not given) | 380 | 
4 | CN(C(=O)Cc1c[nH]c2ccccc12)[C@@H]1CCCC[C@H]1N1CCCC1 | 39 | 
5 | CN(C(=O)Cc1ccccc1)[C@H]1CC[C@@]2(CCCO2)C[C@@H]1N1CCCC1 | 7.1 | 
6 | C=CCN(C)[C@@H]1CCCC[C@H]1N(C)C(=O)Cc1cccc2sccc12 | 4 | 
7 | CN(C(=O)Cc1ccc(Cl)c(Cl)c1)C1CCCCC1N1CCCC1 (stereo not given) | 88 | 
8 | CN(CCc1ccccc1)[C@@H]1CCCC[C@H]1N(C)C(=O)Cc1cccc2sccc12 | 0.87 | 
9 | CN(CC1CC1)[C@@H]1CCCC[C@H]1N(C)C(=O)Cc1cccc2sccc12 | 0.95 | 
10 | CN(C(=O)Cc1cccc2sccc12)[C@@H]1CCCC[C@H]1N1CCCCC1 |  | 9.6
11 | CN(C(=O)Cc1cccc2occc12)[C@@H]1CCCC[C@H]1N1CCCCCC1 |  | 120
12 | CC[C@@]12CCN(CC3CC3)C(C(=O)c3ccc(O)cc31)[C@@H]2C |  | 3
13 | CN(C(=O)Cc1cccc2sccc12)[C@@H]1CCCC[C@H]1N1CCCCCC1 | 20 | 
14 | CCN(CC)[C@@H]1CCCC[C@H]1N(C)C(=O)Cc1cccc2sccc12 |  | 0.19
15 | CN(C(=O)Cc1cccs1)[C@@H]1CCCC[C@H]1N1CCCC1 |  | 25
